Legend:
[1] = target: ACTA2 (human) (UniProt P62736); experiment: IgG control IP from lysate of cells overexpressing C-FLAG B3GNT2, then mass spectrometry
[2] = target: ABCF1 (UniProt Q8NE71); experiment: co-IP, IgG control, lysate of C-FLAG B3GNT2 cells, mass spectrometry
[3] = target: RPL29 (UniProt P47914); experiment: as above
[4] = target: CALM2 (UniProt P0DP24); experiment: as above
[5] = target: GNAS (UniProt Q5JWF2); experiment: as above
[6] = target: CSPG4 (UniProt Q6UVK1); experiment: as above
[7] = target: MYO1D (UniProt O94832); experiment: as above
[8] = target: CNP (UniProt P09543); experiment: as above
[9] = target: CEP170 (UniProt Q5SW79); experiment: as above
[10] = target: TNC (UniProt P24821); experiment: as above
[11] = target: MAP1B (UniProt P46821); experiment: as above
[12] = target: DPM1 (UniProt O60762); experiment: as above
[13] = target: LRPPRC (UniProt P42704); experiment: as above
[14] = target: TRIM28 (UniProt Q13263); experiment: as above
[15] = target: NCL (UniProt P19338); experiment: as above
[16] = target: PSMA4 (UniProt P25789); experiment: as above
[17] = target: LAMB1 (UniProt P07942); experiment: as above
[18] = target: RAB1B (UniProt Q9H0U4); experiment: as above
[19] = target: RBMX (UniProt P38159); experiment: as above
[20] = target: RNASE1 (UniProt P07998); experiment: as above
[21] = target: LRP2 (UniProt P98164); experiment: as above
[22] = target: SLC25A1 (UniProt P53007); experiment: as above
[23] = target: RPL18A (UniProt Q02543); experiment: as above
[24] = target: HLA-A (UniProt P04439); experiment: as above
[25] = target: SMN1 (UniProt Q16637); experiment: as above
[26] = target: PRR4 (UniProt Q16378); experiment: as above
[27] = target: SERPINE2 (UniProt P07093); experiment: as above
[28] = target: PGK1 (UniProt P00558); experiment: as above
[29] = target: LOXL4 (UniProt Q96JB6); experiment: as above
[30] = target: ARPC2 (UniProt O15144); experiment: as above
[31] = target: PSMA1 (UniProt P25786); experiment: as above
[32] = target: TM9SF3 (UniProt Q9HD45); experiment: as above
[33] = target: ALDOA (UniProt P04075); experiment: as above
[34] = target: OS9 (UniProt Q13438); experiment: as above
[35] = target: SEC16A (UniProt O15027); experiment: as above
[36] = target: ACTA2 (human) (UniProt P62736); experiment: IgG control IP from lysate of cells overexpressing N-FLAG B3GNT2, then mass spectrometry
[37] = target: RPL18A (UniProt Q02543); experiment: co-IP, IgG control, lysate of N-FLAG B3GNT2 cells, mass spectrometry
[38] = target: PGK1 (UniProt P00558); experiment: as above
[39] = target: ARPC2 (UniProt O15144); experiment: as above

Substance: IgG control (Millipore Sigma 12-371) (antibody)
- co-IP mass spectrometry count (C-term IgG) [1]: 63
- co-IP/MS count [2]: 0
- co-IP/MS count [3]: 0
- co-IP/MS count [4]: 0
- co-IP/MS count [5]: 0
- co-IP/MS count [6]: 0
- co-IP/MS count [7]: 0
- co-IP/MS count [8]: 0
- co-IP/MS count [9]: 0
- co-IP/MS count [10]: 0
- co-IP/MS count [11]: 0
- co-IP/MS count [12]: 0
- co-IP/MS count [13]: 0
- co-IP/MS count [14]: 0
- co-IP/MS count [15]: 0
- co-IP/MS count [16]: 0
- co-IP/MS count [17]: 0
- co-IP/MS count [18]: 0
- co-IP/MS count [19]: 0
- co-IP/MS count [20]: 0
- co-IP/MS count [21]: 0
- co-IP/MS count [22]: 0
- co-IP/MS count [23]: 0
- co-IP/MS count [24]: 0
- co-IP/MS count [25]: 2
- co-IP/MS count [26]: 0
- co-IP/MS count [27]: 0
- co-IP/MS count [28]: 0
- co-IP/MS count [29]: 0
- co-IP/MS count [30]: 0
- co-IP/MS count [31]: 0
- co-IP/MS count [32]: 0
- co-IP/MS count [33]: 0
- co-IP/MS count [34]: 0
- co-IP/MS count [35]: 0
- co-IP mass spectrometry count (N-term IgG) [36]: 77
- co-IP/MS count [37]: 0
- co-IP/MS count [38]: 0
- co-IP/MS count [39]: 0
